{"source": "patent US10548982B2", "about": "“Reversible covalent linkage of functional molecules” (priority 2009, dated 2020)", "settings": "glutathione 1 mM (5 μL of 20 mM), 37° C., 4 h, 20 mM HEPES pH 7.4", "data": [{"substance": "GrB2-SH2 Domain L111C/Dibromomaleimide/Glutathione Adduct", "values": [{"measurement": "cleavage of adduct regenerating Grb2-SH2 (L111C)", "value": "quantitative conversion"}]}]}
